For four compounds, IC50 results are on record in patent publication US10023593B2, “ALK kinase inhibitor, and preparation method and uses thereof” (BEIJING PEARL BIOTECHNOLOGY LIMITED LIABILITY COMPANY, priority 2014, dated 2018).

In one test the test system is Karpas-299 cell line. The test is described as follows: CellTiter-Glo cell proliferation inhibition on Karpas-299 cell line. In kind it is cell-based. Conditions: Homo sapiens, 96 h, Karpas-299 cells, 5000 cells/well, 4 days drug treatment. How it is done: 4. Cell Proliferation Inhibitory Activities of the Compounds of the Present Invention on Karpas-299 Cell Line
? experimental method ? CellTiter-Glo® Luminescent Cell Viability Assay kit from Promega company was used to detect cell proliferation inhibitory activities of the compounds on Karpas-299 cell line.
(§1) ? instrument ? Envision 2104 plate reader from PerKinElmer company; Vi-Cell XR cell counter from Beckman Counter company; MCO-18AIC CO2 incubator from SANYO company.
? experiment material ? […]
? experimental condition ? Karpas-299 cells in exponential growth phase were collected and viable cells were counted by Vi-Cell XR cell counter. […] After placing at room temperature for 10 minutes, luminescence reading value was measured with PerkinElmer Envision 2104 plate reader and the data was analyzed. […]
Luminescence value of DMSO solvent control (Vvehicle control, which is the mean luminescence value from DMSO solvent control group)
(§2) Tested luminescence value (Vsample, which is the luminescence value from given concentration of compounds group) Inhibition rate (%)=(1−Vsample/Vvehicle control)×100
(§3) ? data processing ? IC50 of compounds was calculated by using XLfit program in Excel.
A general note: Cellular ATP, detected with luciferase, serves as a proxy for viable cell number.

The subject of the next test is NCI-H2228 cell line. Description: CellTiter-Glo cell proliferation inhibition on NCI-H2228 cell line. Format: cell-based. Conditions: Homo sapiens, NCI-H2228, 96 h, NCI-H2228 cells, 5000 cells/well, 4 days drug treatment. How it is done:
3. Cell Proliferation Inhibitory Activities of the Compounds of the Present Invention on NCI-H2228 Cell Line
? experimental method ? CellTiter-Glo® Luminescent Cell Viability Assay kit from Promega company was used to detect cell proliferation inhibitory activities of the compounds on NCI-H2228 cell line.
as §1
? experiment material ? CellTiter-Glo® Luminescent Cell Viability Assay Kit (Promega company, catalog No. G7573); NCI-H2228 cell line (ATCC, catalog No. CRL-5935); RPMI-1640 medium (HyClone company, catalog No. SH30809.01B); fetal bovine serum (FBS) (Gibco company, catalog No. 10099-141); trypsin (Trypsin) (Gibco company, catalog No. 25200-072); PBS (HyClone company, catalog No. SH30256.01B); 96 wells cell culture plate (Corning company, catalog No. 3610); DMSO (AMRESCO company, catalog No. 0231); 96 wells plates (for diluting compounds) (CITOTEST company, catalog No. Ref36020096D);
? experimental condition ? NCI-H2228 cells in exponential growth phase were collected and treated with trypsin (Trypsin), and viable cells were counted by Vi-Cell XR cell counter. Cell suspension was adjusted to 62500 cells/ml with culture medium (RPMI-1640+10% FBS). 80 μl cell suspension was added into each well of 96 wells cell culture plate so that the final cell number of NCI-H2228 cells was 5000 cells/well. […] After placing at room temperature for 10 minutes, luminescence value was measured by PerkinElmer Envision 2104 plate reader and the data was analyzed. […]
? data analysis ? Luminescence value of DMSO solvent control (Vvehicle control, which is the mean luminescence value from DMSO solvent control group)
as §2, §3

For the compound `CC(C)S(=O)(=O)c1nn(C)cc1Nc1nc(Nc2cc(F)c(C3CCN(C)CC3)cc2OC2CC2)ncc1Cl` [Final product 44], half-maximal inhibition with Karpas-299 cell line (IC50) required 17 nM.

Turning to `Cc1cc(Nc2ncc(Cl)c(Nc3cn(C)nc3S(=O)(=O)C(C)C)n2)c(OC2CC2)cc1C1CCN(C)CC1` [Final product 51], it took 52 nM to reach half-maximal inhibition in the test on NCI-H2228 cell line (IC50).

As to `Cc1cc(Nc2ncc(Cl)c(Nc3cn(C)nc3S(=O)(=O)C(C)C)n2)c(OC(C)C)cc1C1CCN(C)CC1` [Final product 80], the concentration for half-maximal inhibition (IC50) (commonly the concentration that gives 50% inhibition) in the test with NCI-H2228 cell line was found to be 96 nM.

As to `Cc1cc(Nc2ncc(Cl)c(Nc3cn(C)nc3S(=O)(=O)C(C)C)n2)c(OC2CC2)cc1C1CCN(C(C)C)CC1` [Final product 123, 5-chloro-N^2-[2-cyclopropoxy-4-(1-isopropylpiperidin-4-yl)-5-methyl-phenyl]-N^4-[1-methyl-3-(isopropylsulfonyl)-1H-pyrazol-4-yl]-pyrimidin-2,4-diamine], 58 nM corresponded to half-maximal inhibition with NCI-H2228 cell line (IC50).
